Results as given in patent US10577363B2, “Substituted piperidine compounds” (EPIZYME, INC., priority 2014, dated 2020).

Biological target: SMYD3 (Homo sapiens (Human), UniProt Q9H7B4)
Assay: SMYD3 biochemical assay (SPA, 3H-SAM methylation of MEKK2 protein substrate)
Settings: read-out: SMYD3 Biochem IC50 (μM)*
From the text: S-adenosylmethionine (SAM), S-adenosylhomocysteine (SAH), Tris, Tween20, dimethylsulfoxide (DMSO), bovine skin gelatin (BSG), and Tris(2-carboxyethyl)phosphine hydrochloride solution (TCEP) were purchased from Sigma-Aldrich at the highest level of purity possible. ^3H-SAM was purchase from American Radiolabeled Chemicals with a specific activity of 80 Ci/mmol. 384-well opaque white OptiPlates and SPA beads (Perkin Elmer, catalog # RPNQ0013) were purchased from PerkinElmer.
N-terminally GST-tagged MEKK2 (MAP3K2) protein corresponding to reference sequence AAF63496.3 was purchased from Life Technologies (catalog # PV4010). This protein was expressed in High Five insect cells and purified to >85% purity. Protein identity was confirmed by MS/MS analysis after proteolytic digestion. The protein sequence used was:
Full-length human SMYD3 isoform 1 (BAB86333) was inserted into a modified pET21b plasmid containing a His6 tag and TEV and SUMO cleavage sites. […]
The assays were all performed in a buffer consisting of 25 mM Tris-Cl pH 8.0, 1 mM TCEP, 0.005% BSG, and 0.005% Tween 20, prepared on the day of use. […] Radiolabeled MEKK2 was detected using a scintillation proximity assay (SPA). […] The plates were then read in a PerkinElmer TopCount plate reader to measure the quantity of ^3H-labeled MEKK2 as disintegrations per minute (dpm) or alternatively, referred to as counts per minute (cpm).

Work on `CCS(=O)(=O)N1CCC(NC(=O)c2cc(C3CC3)on2)CC1` [compound 41, 5-cyclopropyl-N-(1-(ethylsulfonyl)piperidin-4-yl)isoxazole-3-carboxamide] yielded an IC50 of 13.9 µM.
